# Test results: PubChem BioAssay AID1778 (Sanford-Burnham Center for Chemical Genomics, 2009)
# Sequences of proteins named here, by UniProt entry; tags and fusion partners are left off.
# UniProt P41145, whole entry: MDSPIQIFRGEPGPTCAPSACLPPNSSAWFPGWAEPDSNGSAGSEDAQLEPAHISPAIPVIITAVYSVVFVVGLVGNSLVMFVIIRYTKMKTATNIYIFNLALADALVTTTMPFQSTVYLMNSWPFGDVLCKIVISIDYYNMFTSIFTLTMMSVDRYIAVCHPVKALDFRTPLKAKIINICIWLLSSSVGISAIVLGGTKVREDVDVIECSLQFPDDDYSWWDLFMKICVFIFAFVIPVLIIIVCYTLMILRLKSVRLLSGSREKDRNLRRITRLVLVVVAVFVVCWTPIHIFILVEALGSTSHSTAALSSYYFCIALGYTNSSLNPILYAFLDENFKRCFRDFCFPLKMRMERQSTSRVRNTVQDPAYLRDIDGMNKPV
# This is a selection; strong and weak results do not stand in their true shares. Entries with a potency or affinity are not part of this list. Some of these compounds have results that are not shown, active ones among them. The source made the active and inactive calls. Cut-off read from the data, not from the text of the source: active = inhibition above about 50%; inactive = the rest.
# Target: Kappa-type opioid receptor (Homo sapiens) (UniProt P41145)
# Assay: KOR antagonists, beta-arrestin recruitment, cell-based, luminescence, uHTS (AID 1778)
# Conditions: antagonist mode, at 10 µM, active compounds read high
row,Structure (SMILES),inhibition
1,COc1cc(C(=O)NCC2(N(C)C)CCCCC2)c([N+](=O)[O-])cc1OC,inactive: -16.5%
2,CN(C)C1(CNC(=O)c2ccc(Br)cc2)CCCCC1,inactive: 6.3%
3,O=C(NCC1(N2CCCCC2)CCCCC1)c1cccc(Cl)c1,inactive: 19.2%
4,COc1ccc(Cl)cc1C(=O)NCC1(N(C)C)CCCCC1,inactive: -15.7%
5,COc1cccc(C(=O)NCC2(N3CCCCC3)CCCCC2)c1,inactive: -15%
6,O=C(OC1CN2CCC1CC2)C(CO)(c1ccccc1)c1ccccc1 (stereo not drawn),inactive: 27.9%
7,CC(C)Oc1ccc(C(=O)NCC2(N(C)C)CCCCC2)cc1,inactive: 2.6%
8,CN(C)c1cccc(C(=O)NCC2(N(C)C)CCCCC2)c1,inactive: -4.6%
9,COc1ccc(Br)c(C(=O)NCC2(N3CCCCC3)CCCCC2)c1,inactive: -3%
10,CN1[C@@H]2CC[C@H]1CC(OC(=O)C(O)(c1ccccc1)c1ccccc1)C2 (stereo partly drawn),inactive: -0.1%
11,O=C(NCC1(N2CCCCC2)CCCCC1)c1cc([N+](=O)[O-])ccc1Cl,inactive: 0.3%
12,Cc1ccc(C(=O)NCC2(N3CCCCC3)CCCCC2)cc1,inactive: -19.7%
13,COc1cc(SC)ccc1C(=O)NCC1(N(C)C)CCCCC1,inactive: -19.2%
14,CCN(CC)CC(C)C(C)OC(=O)C(O)(c1ccccc1)c1ccccc1 (stereo not drawn),inactive: 18%
15,CC(C)N1C(=O)CC2(CCN(CCOC(=O)C(O)(c3ccccc3)c3ccccc3)CC2)C1=O,inactive: -8.8%
16,CN(C)c1ccc(C(=O)NCC2(N(C)C)CCCCC2)cc1,inactive: 19.9%
17,CN(C)C1CCCC1OC(=O)C(O)(c1ccccc1)c1ccccc1 (stereo not drawn),inactive: -10.7%
18,Cc1ccccc1C(=O)NCC1(N2CCCCC2)CCCCC1,inactive: -12.7%
19,COc1ccc(C(=O)NCC2(N(C)C)CCCCC2)cc1,inactive: -18.2%
20,O=C(NCC1(N2CCCCC2)CCCCC1)c1cccc(Br)c1,inactive: -9.8%
21,CCN1CCCC(OC(=O)C2(O)c3ccccc3C=Cc3ccccc32)C1 (stereo not drawn),inactive: -31.6%
22,Cc1cc(C(=O)NCC2(N3CCCCC3)CCCCC2)ccc1[N+](=O)[O-],inactive: -19.5%
23,O=C(NCC1(N2CCCCC2)CCCCC1)c1cc(F)c(F)cc1Cl,inactive: -6.5%
